Test system: HEK293T cells
Conditions: inhibitor alone at 3 μM, 48 h

Work on `Cc1ccc(NC(=O)c2ccc(CN3CCN(C)CC3)cc2)cc1Nc1nccc(-c2cccnc2)n1` [Imatinib] yielded a cells killed of 12.5%.

— paper PMC6941846 (Bioorganic & medicinal chemistry, 2019)
